Measured values published in patent publication US8222202B2 (priority 2006, dated 2012).

Sequences of proteins named here, by UniProt entry; tags and fusion partners are left off.
UniProt P37288, whole entry: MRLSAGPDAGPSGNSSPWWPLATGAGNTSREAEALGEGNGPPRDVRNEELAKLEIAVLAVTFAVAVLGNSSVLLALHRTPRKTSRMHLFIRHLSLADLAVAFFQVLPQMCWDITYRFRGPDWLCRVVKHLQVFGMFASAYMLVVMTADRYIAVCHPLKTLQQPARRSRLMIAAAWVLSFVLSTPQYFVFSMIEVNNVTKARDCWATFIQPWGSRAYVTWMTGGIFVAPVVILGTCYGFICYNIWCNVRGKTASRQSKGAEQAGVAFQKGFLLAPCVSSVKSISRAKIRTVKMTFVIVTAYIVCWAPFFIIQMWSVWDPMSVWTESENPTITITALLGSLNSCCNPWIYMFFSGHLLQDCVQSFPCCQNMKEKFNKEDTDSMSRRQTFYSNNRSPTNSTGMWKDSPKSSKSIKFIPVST

Biological target: T1, hV1a receptor (Homo sapiens, UniProt P37288)
T1 construct: expressed in transfected cells; host or cells: HEK-293
Experiment: hV1a receptor transcriptional reporter (luciferase) agonist assay
Assay type: cell-based
Conditions: HEK-293 cells transiently transfected with hV1a receptor, 5 hours exposure, geometric mean
Protocol: Agonist activity of compounds on the hV1a receptor was determined in a transcriptional reporter assay by transiently transfecting a hV1a receptor expression DNA into HEK-293 cells in concert with a reporter DNA containing intracellular calcium responsive promoter elements regulating expression of firefly luciferase. See Boss, V., Talpade, D. J., Murphy, T. J. J. Biol. Chem. 1996, May 3; 271(18), 10429-10432 for further guidance on this assay. […] To determine selectivity, compounds were tested in luciferase-based transcriptional reporter assays expressing the human oxytocin (hOT) receptor. Assays for other receptors (hV2, hV1b, rat V1a and rat V2) were also conducted.
The EC50 value given is the geometric mean expressed in nanomol/L (nM). Selectivity values are given as EC50 ratios.

In the case of “[Phe2,Orn8]OT [[Phe2, Orn8]OT, reference compound]”, the EC50 is reported as 0.15 nM.
